{"source": "patent US5389638A", "about": "“Tetrahydroisoquinolines as alpha-2 antagonists and biogenic amine uptake inhibitors” (Abbott Laboratories, priority 1993, dated 1995)", "system": "serotonin (5-HT) uptake", "experiment": "inhibition of [3H]-amine uptake by synaptosome preparations, cortex (serotonin)", "assay_type": "biochemical, rat (male Sprague-Dawley)", "conditions": "cortex synaptosomes, [3H]-amine approx. 100 nM, 4 min, 37° C.; read-out: Biogenic amine uptake IC50 5-HT", "description": "The primary method of evaluation of biogenic amine uptake activity has been the in vitro determination of the inhibition of radioactive amine uptake by synaptosome preparations of brain tissue. Basic procedures used are those described by Snyder and Coyle (Snyder, S. H. and J. T. Coyle, Regional Differences in ^3 H-Norepinephrine and ^3 H-Dopamine Uptake into Rat Brain Homogenates, Journal of Pharmacology and Experimental Therapeutics 1969, 165: 78-86) and Wong et al. (Wong, D. T., J-S. Horng and R. W. Fuller, Kinetics of Norepinephrine Accumulation into Synaptosomes of Rat Brain-Effects of Amphetamine and Chloroamphetamines, Biochemical Pharmacology 1973, 22:311-322). […] Data were analyzed as described previously (J. F. DeBemardis, D. J. Kerkman, D. L. Arendsen, S. A. Buckner, J. J. Kyncl, and A. A. Hancock, Conformationally Defined Adrenergic Agents. 5. Resolution, Absolute Configuration, and Pharmacological Characterization of the Enantiomers of 2-[5,6-Dihyroxy-1,2,3,4-tetrahydro-1-1-naphthyl]imidazoline: A Potent Agonist at a-Adrenoceptors, Journal of Medicinal Chemistry 1987, 30: 1011-1017).", "note": "pIC50: −log10 of the molar value.", "data": [{"compound": "COC(=O)[C@H]1[C@H]2C[C@H]3c4[nH]c5ccccc5c4CCN3C[C@H]2CC[C@@H]1O", "note": "[Rauw*, Rauwolscine, reference compound]", "values": [{"measurement": "pIC50", "value": "< 7.00"}]}]}
